What was measured:
[1] = 298.15 K, 101.33 kPa, Liquid
[2] = refractive index (Na D-line) (dimensionless); details: 298.15 K; 101.33 kPa; Liquid; Standard Abbe refractometry
[3] = Boiling temperature at pressure P; details: 101.3 kPa; Liquid; Ebulliometric method (Recirculating still)
[4] = xn = mol fraction of the nth substance listed; details: 298.15 K, 101.3 kPa, Liquid; for speed of sound: Frequency=3 MHz, Single path-length method; for mass density: Vibrating tube method
[5] = refractive index (Na D-line) (dimensionless); xn = mol fraction of the nth substance listed; details: 298.15 K, 101.3 kPa, Liquid, Standard Abbe refractometry

CCCCOCCCC [dibutyl ether]
[1]
Details | mass density [kg/m3] | speed of sound [m/s]
Single path-length method | – | 1162
Vibrating tube method | 763.799 | –

Details | Boiling temperature at pressure P [°C] | refractive index
[2] | – | 1.39652
[3] | 141.40 | –

CCCCOCCCC [dibutyl ether] + CC(C)CC(C)(C)C
Details | mass density, [4] [kg/m3] | refractive index, [5] | speed of sound, [4] [m/s]
x2 = 0 | 763.75 | 1.39652 | 1162
x2 = 0.0503 | 760.07 | 1.39618 | 1158.3
x2 = 0.1016 | 756.32 | 1.39584 | 1154.5
x2 = 0.1493 | 752.81 | 1.39551 | 1151
x2 = 0.1972 | 749.28 | 1.39519 | 1147.4
x2 = 0.2496 | 745.31 | 1.39483 | 1142.3
x2 = 0.3005 | 741.56 | 1.39448 | 1139.1
x2 = 0.3509 | 737.8 | 1.39411 | 1135.2
x2 = 0.4013 | 733.95 | 1.39374 | 1130.7
x2 = 0.451 | 730.21 | 1.39338 | 1127.1
x2 = 0.4994 | 726.58 | 1.39304 | 1123.7
x2 = 0.5474 | 722.91 | 1.39267 | 1120.3
x2 = 0.5978 | 719.07 | 1.39227 | 1116.2
x2 = 0.6491 | 715.12 | 1.39186 | 1112.1
x2 = 0.7016 | 711.08 | 1.39146 | 1107.8
x2 = 0.7505 | 707.28 | 1.39105 | 1103.8
x2 = 0.8028 | 703.2 | 1.39064 | 1099.5
x2 = 0.8516 | 699.4 | 1.39023 | 1095.4
x2 = 0.8989 | 695.7 | 1.38985 | 1091.4
x2 = 0.9497 | 691.68 | 1.3894 | 1087.1

— the NIST ThermoML archive (doi:10.1016/j.fluid.2018.07.027)
